Test results published in paper PMC7579404, “A Novel KPC Variant KPC-55 in Klebsiella pneumoniae ST307 of Reinforced Meropenem-Hydrolyzing Activity” (Frontiers in Microbiology, 2020).

Assays:
Experiment in all cases: purified protein
Settings in all cases: 50 mM morpholinepropanesulfonic acid pH 7.0, 50 mM NaCl, 100 mM sodium phosphate pH 7.0, 30°C
[1] = test system: CC1(C)S[C@@H]2[C@H](NC(=O)[C@H](N)c3ccccc3)C(=O)N2[C@H]1C(=O)O; assay type: biochemical, Klebsiella pneumoniae
[2] = test system: C[C@@H](O)[C@H]1C(=O)N2C(C(=O)O)=C(SCCN=CN)C[C@H]12
[3] = test system: C[C@H]1[C@H](NC(=O)/C(=N\OC(C)(C)C(=O)O)c2csc(N)n2)C(=O)N1S(=O)(=O)O

KPC-2 (and its variant KPC-55 = KPC-2 Y264N) (Klebsiella pneumoniae)
Km [1]: 1.03 ± 0.38 µM
kcat [1]: 5.31 ± 2.8 s⁻¹
kcat/Km [1]: 4.98e+06 ± 770000 M⁻¹ s⁻¹

KPC-2 (and its variant KPC-55 = KPC-2 Y264N) (Klebsiella pneumoniae; Y262N)
Km [2]: 0.13 ± 0.002 µM
kcat [2]: 1.99 s⁻¹
kcat/Km [2]: 1.51e+07 M⁻¹ s⁻¹
Km [3]: 1.50 ± 0.31 µM
kcat [3]: 27.9 s⁻¹
kcat/Km [3]: 1.86e+07 M⁻¹ s⁻¹
